Experimental data: ChEMBL document CHEMBL3877245 (Eur J Med Chem, 2016)

Protein sequences, listed by entry. Tags and fused reporters are not part of them. Lines headed by an entry give the natural chain unless they say otherwise; changes in a name come on top.
UniProt P04757, whole entry: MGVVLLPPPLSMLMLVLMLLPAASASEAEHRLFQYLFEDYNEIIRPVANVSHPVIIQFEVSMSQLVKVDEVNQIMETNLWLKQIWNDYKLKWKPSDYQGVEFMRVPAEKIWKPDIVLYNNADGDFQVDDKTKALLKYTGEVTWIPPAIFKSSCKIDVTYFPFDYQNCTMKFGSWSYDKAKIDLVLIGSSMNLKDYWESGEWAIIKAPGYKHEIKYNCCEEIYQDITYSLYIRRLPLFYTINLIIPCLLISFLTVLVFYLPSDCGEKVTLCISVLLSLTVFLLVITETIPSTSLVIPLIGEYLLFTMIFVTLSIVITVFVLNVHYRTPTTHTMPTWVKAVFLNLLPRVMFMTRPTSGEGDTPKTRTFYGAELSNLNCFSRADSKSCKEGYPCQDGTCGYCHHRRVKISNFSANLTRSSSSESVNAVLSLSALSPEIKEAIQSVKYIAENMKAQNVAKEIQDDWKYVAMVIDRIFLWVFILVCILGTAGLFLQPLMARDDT
UniProt P12392, whole entry: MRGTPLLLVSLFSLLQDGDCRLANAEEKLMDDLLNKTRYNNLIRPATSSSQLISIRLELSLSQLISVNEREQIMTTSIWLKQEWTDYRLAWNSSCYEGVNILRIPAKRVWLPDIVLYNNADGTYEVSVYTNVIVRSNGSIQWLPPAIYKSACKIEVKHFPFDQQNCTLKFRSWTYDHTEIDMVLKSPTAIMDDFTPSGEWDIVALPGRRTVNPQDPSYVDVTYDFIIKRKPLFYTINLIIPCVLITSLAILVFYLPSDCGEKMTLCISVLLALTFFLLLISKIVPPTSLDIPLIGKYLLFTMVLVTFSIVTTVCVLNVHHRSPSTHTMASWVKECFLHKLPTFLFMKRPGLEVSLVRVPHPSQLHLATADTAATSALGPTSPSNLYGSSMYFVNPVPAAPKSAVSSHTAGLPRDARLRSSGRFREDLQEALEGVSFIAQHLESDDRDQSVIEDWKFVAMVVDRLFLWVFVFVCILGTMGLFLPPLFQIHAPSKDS
UniProt P17787, whole entry: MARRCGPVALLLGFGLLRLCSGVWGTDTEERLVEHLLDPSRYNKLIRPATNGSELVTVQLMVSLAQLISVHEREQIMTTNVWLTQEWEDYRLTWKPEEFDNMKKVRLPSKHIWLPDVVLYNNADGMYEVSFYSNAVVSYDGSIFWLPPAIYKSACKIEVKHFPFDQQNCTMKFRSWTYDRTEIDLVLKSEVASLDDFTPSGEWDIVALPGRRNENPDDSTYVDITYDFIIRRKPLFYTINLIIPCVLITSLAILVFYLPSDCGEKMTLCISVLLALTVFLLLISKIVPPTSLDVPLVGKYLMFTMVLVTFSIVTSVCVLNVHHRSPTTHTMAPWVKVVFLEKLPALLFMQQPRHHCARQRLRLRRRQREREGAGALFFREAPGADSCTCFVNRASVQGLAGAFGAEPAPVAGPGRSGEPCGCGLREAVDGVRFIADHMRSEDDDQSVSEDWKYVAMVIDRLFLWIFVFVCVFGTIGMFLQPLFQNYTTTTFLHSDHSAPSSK
UniProt P43681: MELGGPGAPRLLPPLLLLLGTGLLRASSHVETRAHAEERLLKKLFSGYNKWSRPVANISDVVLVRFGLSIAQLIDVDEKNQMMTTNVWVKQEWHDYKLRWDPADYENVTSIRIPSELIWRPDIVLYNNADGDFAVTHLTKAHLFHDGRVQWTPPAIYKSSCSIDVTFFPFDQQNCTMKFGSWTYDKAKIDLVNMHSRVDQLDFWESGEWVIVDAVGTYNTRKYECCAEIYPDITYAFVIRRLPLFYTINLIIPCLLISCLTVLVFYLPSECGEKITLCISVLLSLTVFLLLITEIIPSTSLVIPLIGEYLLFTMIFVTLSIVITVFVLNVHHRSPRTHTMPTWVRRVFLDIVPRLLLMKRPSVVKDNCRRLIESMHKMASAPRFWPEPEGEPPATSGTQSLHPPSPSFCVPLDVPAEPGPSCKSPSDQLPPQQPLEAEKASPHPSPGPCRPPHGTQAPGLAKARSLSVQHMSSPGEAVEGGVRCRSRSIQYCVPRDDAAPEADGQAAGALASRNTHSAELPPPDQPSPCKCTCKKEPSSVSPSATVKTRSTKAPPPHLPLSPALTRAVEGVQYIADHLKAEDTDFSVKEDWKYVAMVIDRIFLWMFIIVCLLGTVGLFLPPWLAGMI

Assays:
[1] = target: alpha3beta4 nAChR (neuronal acetylcholine receptor alpha3/beta4) (Rattus norvegicus, UniProt P04757+P12392); assay: Displacement of [3H]epibatidine from rat alpha3beta4 nAChR at 10 uM by liquid scintillation counting; settings: probe [3H]epibatidine
[2] = target: T1, Neuronal acetylcholine receptor; alpha4/beta2 (Homo sapiens, UniProt P17787+P43681); assay: Agonist activity at human alpha4beta2 nAChR expressed in human SH-EP1 cells after 9.5 mins by 86Rb+ efflux assay; format: cell-based
In short: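 86Rb+ efflux: cells loaded with ~350,000 cpm 86Rb+ at least 4 h (typically overnight), rinsed with efflux buffer pH 7.4 (130 mM NaCl, 5.4 mM KCl, 2 mM CaCl2, 50 mM HEPES, 5 mM glucose). Test drug alone applied 9.5 min. Efflux normalized, after nonspecific subtraction, to specific efflux of fully efficacious carbamylcholine control; nonspecific defined with carbamylcholine plus mecamylamine; EC50 derived.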

[3] = target: T1, Neuronal acetylcholine receptor; alpha4/beta2; assay: Antagonist activity at human alpha4beta2 expressed in human SH-EP1 cells assessed as reduction in carbamylcholine induced 86Rb+ efflux preincubated for 10 mins followed by carbamylcholine addition measured after 5 mins by Cherenkov counting; format: cell-based
In short: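 Same 86Rb+-loaded cells and pH 7.4 efflux buffer. Cells lysed in 0.1 M NaOH/0.1% SDS and Cerenkov counted. Specific efflux = total minus nonspecific (mecamylamine-blocked); inactivation IC50 derived from inhibition of carbamylcholine response.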

`COCC[C@H]1C[C@@H]1c1cncc(N2C[C@@H]3C[C@H]2CN3)c1` was tested, and the inhibition at 10 µM [1] was less than 50%, the EC50 [2] was 125 nM and the IC50 [3] was 169 nM.
